For this data set the following is noted: rat; liver microsomes; pH 7.4; 15.0 min; 1.0 µM. For orientation: Liver microsomes are a subcellular fraction often used to study metabolism.

Turning to `Cc1nc(Nc2ncc(C(=O)Nc3c(C)cccc3Cl)s2)cc(N2CCN(CCO)CC2)n1`, the half-life came out at 17.1 min.

Molecule `CN(Cc1cnc2nc(N)nc(N)c2n1)c1ccc(C(=O)N[C@@H](CCC(=O)O)C(=O)O)cc1` yielded a half-life of more than 30 min.

Usually half-life stands for the time needed for the level to fall by half in the phase considered. A lower half-life goes with rapid decline.

Source of the values: PubChem BioAssay AID1508591.
